The test addresses Endoplasmic reticulum aminopeptidase 1 (Homo sapiens) (UniProt Q9NZ08). Kind of test: ERAP1 aminopeptidase activity change, dose response, biochemical, fluorescence, cherry-pick (AID 743317). Conditions: ERAP1 enzyme, Leu-AMC fluorescence, 60 min; at 11 µM (top of the series).

Amino acid sequences for entries named in this document (tags omitted). A change or cut given only in a name is not applied to a line headed by its entry.
UniProt Q9NZ08: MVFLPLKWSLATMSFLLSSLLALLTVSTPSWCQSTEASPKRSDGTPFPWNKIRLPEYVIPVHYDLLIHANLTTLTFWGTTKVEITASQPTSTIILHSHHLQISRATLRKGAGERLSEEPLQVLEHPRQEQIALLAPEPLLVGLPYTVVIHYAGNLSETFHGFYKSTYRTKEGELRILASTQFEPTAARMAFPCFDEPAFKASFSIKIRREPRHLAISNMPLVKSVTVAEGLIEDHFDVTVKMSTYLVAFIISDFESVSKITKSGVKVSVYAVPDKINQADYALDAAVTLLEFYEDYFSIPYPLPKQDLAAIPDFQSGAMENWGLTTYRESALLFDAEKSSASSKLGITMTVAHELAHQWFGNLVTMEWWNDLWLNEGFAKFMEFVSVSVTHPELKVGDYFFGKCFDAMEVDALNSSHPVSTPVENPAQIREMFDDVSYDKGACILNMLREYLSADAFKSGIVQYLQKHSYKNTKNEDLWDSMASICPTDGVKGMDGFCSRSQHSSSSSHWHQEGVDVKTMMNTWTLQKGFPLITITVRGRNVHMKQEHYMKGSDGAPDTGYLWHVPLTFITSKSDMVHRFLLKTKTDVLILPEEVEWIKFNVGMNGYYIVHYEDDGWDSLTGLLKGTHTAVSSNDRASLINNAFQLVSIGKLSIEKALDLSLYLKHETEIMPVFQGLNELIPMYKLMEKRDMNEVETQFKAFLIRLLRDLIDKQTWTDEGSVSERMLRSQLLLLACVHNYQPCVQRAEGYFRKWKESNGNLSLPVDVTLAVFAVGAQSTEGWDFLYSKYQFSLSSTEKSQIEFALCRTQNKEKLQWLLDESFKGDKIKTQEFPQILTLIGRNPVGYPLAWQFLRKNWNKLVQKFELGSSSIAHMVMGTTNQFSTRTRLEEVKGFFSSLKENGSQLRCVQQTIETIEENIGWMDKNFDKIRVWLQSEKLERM

The list shows a part of the results, in another mix than the full data. Records with an inconclusive call do not appear. The source made the active and inactive calls.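 How the source made its calls: active means fitted curve reaches 40% activation at or below the top valid dose, and every replicate test is called active; inconclusive means replicate tests disagree, some active and some inactive; inactive means all replicate tests inactive, including activity in the wrong direction.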

On to `O=c1ccc2ccc(O)cc2o1`, for which the activity increase (activation) was inactive: -45.9%.

(Values after PubChem BioAssay AID743317 (Broad Institute, 2014).)
